Read-outs that look alike come from different tables or passages of the source.
How the values were obtained:
[1] = target: GDP-bound KRAS protein (aa 1-169), containing both G12C and C118A amino acid substitutions (Homo sapiens (Human), UniProt P01116, C118A/G12C); assay: Coupled Nucleotide Exchange Assay; assay type: biochemical
[2] = system: Phosphorylation of ERK1/2 in A549 cells; assay: Phospho-ERK1/2 MSD Assay (A549); details: read-out: pERK IC50 (4 h, A549), 4 h compound treatment
[3] = system: Phosphorylation of ERK1/2 in MIA PaCa-2 cells; assay: Phospho-ERK1/2 MSD Assay; assay type: cell-based; details: read-out: pERK IC50 (4 h, MiaPaCa-2); 4 h compound treatment; MiaPaCa-2 cells

Protein sequences, listed by entry. Tags and fused reporters are not part of them. Chains listed by the source or under a name are the forms on record and can include a tag or linker. Residues count along the entry.
UniProt P01116, 1-164 with tags or gaps C118A/G12C limits assumed: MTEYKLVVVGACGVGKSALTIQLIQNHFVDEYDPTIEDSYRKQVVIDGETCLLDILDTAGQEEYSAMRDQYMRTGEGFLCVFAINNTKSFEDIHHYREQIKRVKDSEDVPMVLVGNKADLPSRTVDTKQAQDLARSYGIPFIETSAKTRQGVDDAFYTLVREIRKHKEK

Structure (SMILES)	IC50 ([1]; read-out: Coupled Exchange IC50)	IC50 [2]	IC50 [3]	IC50 ([1]; read-out: Coupled Exchange IC50 (2 h), 2 h compound pre-incubation)	IC50 ([1]; read-out: Coupled Exchange IC50 (20 h), 20 h compound pre-incubation)
C=CC(=O)N1CC(N2CCC(n3c(C4CC4)cc4cc(Cl)cc(C)c43)C2=O)C1 (centres unmarked)	34.7 µM				
C=CC(=O)N1CC(NC(=O)Cn2c3ccccc3c3cc(Cl)ccc32)C1		61 µM	13.9 µM	3.12 µM	0.63 µM

— patent US11053226B2, “KRAS G12C inhibitors and methods of using the same” (Amgen Inc., priority 2018, dated 2021)
